Molecular target: purified human autoBACE-2 (Homo sapiens (Human), UniProt Q9Y5Z0)
Test: BACE-2 Assay (BACE-HTRF assay)
Type: biochemical
Settings: read-out: BACE2 Ki; Ki calculated from IC50 using the Cheng-Prusoff equation

Protein sequences, listed by entry. Tags and fused reporters are not part of them. Residues count along the entry.
UniProt Q9Y5Z0, 63-473 limits assumed: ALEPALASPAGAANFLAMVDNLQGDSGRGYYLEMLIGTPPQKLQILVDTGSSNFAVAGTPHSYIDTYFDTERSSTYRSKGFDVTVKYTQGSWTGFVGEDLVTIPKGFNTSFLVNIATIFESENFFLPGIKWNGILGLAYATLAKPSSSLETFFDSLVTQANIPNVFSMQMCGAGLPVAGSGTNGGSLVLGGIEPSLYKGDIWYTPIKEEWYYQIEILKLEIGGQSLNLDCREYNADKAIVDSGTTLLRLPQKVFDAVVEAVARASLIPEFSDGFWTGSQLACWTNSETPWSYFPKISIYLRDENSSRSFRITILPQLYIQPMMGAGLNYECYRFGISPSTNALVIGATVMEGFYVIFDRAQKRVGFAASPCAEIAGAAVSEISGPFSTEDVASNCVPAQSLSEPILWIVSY

Ki: 44 nM
Compound: CC1(C)C(=N)N[C@](C)(c2cc(NC(=O)[C@H]3CCCO3)ccc2F)CS1(=O)=O [Example 9al]

From patent US9499502B2, “5-substituted iminothiazines and their mono- and dioxides as BACE inhibitors, compositions, and their use” (Merck Sharp & Dohme Corp., priority 2011, dated 2016)
